Measured values published in article PMC2895766 (2010).

Sequences of proteins named here, by UniProt entry; tags and fusion partners are left off.
UniProt P31645, whole entry: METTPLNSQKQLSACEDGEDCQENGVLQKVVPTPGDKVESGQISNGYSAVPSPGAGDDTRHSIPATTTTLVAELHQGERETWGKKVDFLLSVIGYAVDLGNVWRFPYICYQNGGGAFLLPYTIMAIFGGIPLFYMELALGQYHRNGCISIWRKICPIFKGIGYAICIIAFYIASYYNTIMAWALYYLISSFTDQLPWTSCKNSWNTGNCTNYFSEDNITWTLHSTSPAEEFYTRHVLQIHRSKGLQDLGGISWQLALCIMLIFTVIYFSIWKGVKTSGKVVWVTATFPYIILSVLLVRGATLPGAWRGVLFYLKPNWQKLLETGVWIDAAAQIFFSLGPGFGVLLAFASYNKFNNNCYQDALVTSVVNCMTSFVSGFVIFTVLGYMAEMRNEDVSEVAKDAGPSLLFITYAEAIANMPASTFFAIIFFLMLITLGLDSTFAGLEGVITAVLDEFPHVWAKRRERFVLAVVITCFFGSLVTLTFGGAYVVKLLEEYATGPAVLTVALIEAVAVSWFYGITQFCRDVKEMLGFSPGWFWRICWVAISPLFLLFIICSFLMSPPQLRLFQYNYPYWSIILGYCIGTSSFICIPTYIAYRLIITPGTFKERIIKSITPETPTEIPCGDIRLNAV

Target: human 5HT transporters [(h)SERT] (Homo sapiens, UniProt P31645)
Assay: Inhibition of [3H]serotonin uptake in HEK293 cells expressing hSERT
Details: read-out: monoamine uptake inhibition IC50 [3H]5HT

SMILES	IC50
C[C@H]1NC(C)(C)CO[C@]1(O)c1cccc(Cl)c1 [(2R,3R)-4a, (2R,3R)-2-(3-Chlorophenyl)-3,5,5-trimethylmorpholin-2-ol]	> 10 µM
C[C@@H]1NC(C)(C)CO[C@@]1(O)c1cccc(Cl)c1 [(2S,3S)-4a, (2S,3S)-2-(3-Chlorophenyl)-3,5,5-trimethylmorpholin-2-ol]	> 10 µM
